Measurements reported in ChEMBL document CHEMBL1629443 (J Med Chem, 2010).

What was measured:
[1] = molecular target: Histone deacetylase; assay: Inhibition of HDAC in human HeLa cell nuclear extracts; assay type: cell-based
[2] = molecular target: T1, Protein deacetylase HDAC6 (Homo sapiens, UniProt Q9UBN7); assay: Inhibition of human recombinant HDAC6 expressed in HEK293 cells; assay type: cell-based
T1 sequence (Q9UBN7 whole entry): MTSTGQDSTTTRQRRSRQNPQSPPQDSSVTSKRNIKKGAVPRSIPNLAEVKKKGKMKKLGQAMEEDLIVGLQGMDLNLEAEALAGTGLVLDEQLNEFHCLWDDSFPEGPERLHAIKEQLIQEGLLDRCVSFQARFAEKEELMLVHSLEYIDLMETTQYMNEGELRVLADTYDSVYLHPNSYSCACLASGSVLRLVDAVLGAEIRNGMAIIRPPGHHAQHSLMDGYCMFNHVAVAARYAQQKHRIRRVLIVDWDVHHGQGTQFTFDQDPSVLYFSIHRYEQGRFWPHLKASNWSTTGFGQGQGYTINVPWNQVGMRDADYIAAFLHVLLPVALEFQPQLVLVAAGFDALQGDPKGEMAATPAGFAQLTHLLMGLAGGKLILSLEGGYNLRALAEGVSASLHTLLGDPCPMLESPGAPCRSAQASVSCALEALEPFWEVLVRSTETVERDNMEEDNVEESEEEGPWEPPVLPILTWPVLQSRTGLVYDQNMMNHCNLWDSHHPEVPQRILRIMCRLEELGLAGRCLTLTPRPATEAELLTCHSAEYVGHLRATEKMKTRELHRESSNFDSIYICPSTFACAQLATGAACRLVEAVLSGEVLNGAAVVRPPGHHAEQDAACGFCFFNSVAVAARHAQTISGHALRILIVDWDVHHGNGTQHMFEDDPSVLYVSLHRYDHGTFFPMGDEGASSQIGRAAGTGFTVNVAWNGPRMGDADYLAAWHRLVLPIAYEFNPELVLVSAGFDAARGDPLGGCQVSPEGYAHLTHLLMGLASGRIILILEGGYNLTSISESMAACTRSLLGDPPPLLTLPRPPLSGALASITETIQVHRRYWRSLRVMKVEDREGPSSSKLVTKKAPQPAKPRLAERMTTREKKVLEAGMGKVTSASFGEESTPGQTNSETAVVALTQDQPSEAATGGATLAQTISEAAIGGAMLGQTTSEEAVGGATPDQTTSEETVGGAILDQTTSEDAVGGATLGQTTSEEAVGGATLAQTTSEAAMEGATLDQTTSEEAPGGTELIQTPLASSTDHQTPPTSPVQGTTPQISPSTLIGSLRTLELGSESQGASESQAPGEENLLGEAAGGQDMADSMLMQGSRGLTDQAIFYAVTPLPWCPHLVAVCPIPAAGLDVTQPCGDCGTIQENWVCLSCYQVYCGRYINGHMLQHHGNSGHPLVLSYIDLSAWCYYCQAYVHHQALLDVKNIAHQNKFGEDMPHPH

[3] = tested on: HeLa; assay: Cytotoxicity against human HeLa cells overexpressing HDAC by resazurin dye reduction assay
[4] = molecular target: Histone deacetylase 1 (Homo sapiens, UniProt Q13547); assay: Inhibition of human recombinant HDAC1 expressed in HEK293 cells; assay type: cell-based

IC50 [1] [µM]	IC50 [2] [µM]	Structure (SMILES)	IC50 [3] [µM]	IC50 [4] [µM]
8.3	9.8	O=C(NO)c1ccc(-c2ccc3ncnc(Nc4ccc(OCc5cccc(F)c5)c(Cl)c4)c3c2)o1	9.8	
		CS(=O)(=O)CCNCc1ccc(-c2ccc3ncnc(Nc4ccc(OCc5cccc(F)c5)c(Cl)c4)c3c2)o1 [LAPATINIB]		> 10
